# Laboratory results: ChEMBL document CHEMBL2177065, “14-Alkoxy- and 14-acyloxypyridomorphinans: μ agonist/δ antagonist opioid analgesics with diminished tolerance and dependence side effects” (J Med Chem, 2012)
# Sequences of proteins named here, by UniProt entry; tags and fusion partners are left off. A change or cut given only in a name is not applied to a line headed by its entry.
# UniProt P41145: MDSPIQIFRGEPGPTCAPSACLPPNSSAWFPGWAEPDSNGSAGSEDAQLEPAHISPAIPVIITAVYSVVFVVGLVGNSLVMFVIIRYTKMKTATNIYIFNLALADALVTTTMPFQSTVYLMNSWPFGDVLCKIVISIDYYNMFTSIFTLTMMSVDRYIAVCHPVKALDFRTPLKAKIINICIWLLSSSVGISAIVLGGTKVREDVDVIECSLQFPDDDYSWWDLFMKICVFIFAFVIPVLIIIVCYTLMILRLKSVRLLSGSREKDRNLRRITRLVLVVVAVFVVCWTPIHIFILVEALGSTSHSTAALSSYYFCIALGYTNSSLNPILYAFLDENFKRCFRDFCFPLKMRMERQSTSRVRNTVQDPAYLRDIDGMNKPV
# Biological target: Kappa-type opioid receptor (Homo sapiens, UniProt P41145)
# Test: Displacement of [3H]U69,593 from human kappa opioid receptor expressed in CHO cells by scintillation counting analysis
# Type: cell-based
smiles,measurement,value
Oc1ccc2c3c1O[C@H]1c4ncc(-c5ccc(Cl)cc5)cc4C[C@@]4(OCCCc5ccccc5)[C@@H](C2)N(CC2CC2)CC[C@]314,Ki,1.82 nM
